Reference: ChEMBL document CHEMBL5715260, “Selectivity Literature for EUbOPEN Chemogenomic Library” (2024)

Biological target: T1, Bromodomain and PHD finger-containing protein 3 (Homo sapiens) (UniProt Q9ULD4)
T1 sequence (whole entry): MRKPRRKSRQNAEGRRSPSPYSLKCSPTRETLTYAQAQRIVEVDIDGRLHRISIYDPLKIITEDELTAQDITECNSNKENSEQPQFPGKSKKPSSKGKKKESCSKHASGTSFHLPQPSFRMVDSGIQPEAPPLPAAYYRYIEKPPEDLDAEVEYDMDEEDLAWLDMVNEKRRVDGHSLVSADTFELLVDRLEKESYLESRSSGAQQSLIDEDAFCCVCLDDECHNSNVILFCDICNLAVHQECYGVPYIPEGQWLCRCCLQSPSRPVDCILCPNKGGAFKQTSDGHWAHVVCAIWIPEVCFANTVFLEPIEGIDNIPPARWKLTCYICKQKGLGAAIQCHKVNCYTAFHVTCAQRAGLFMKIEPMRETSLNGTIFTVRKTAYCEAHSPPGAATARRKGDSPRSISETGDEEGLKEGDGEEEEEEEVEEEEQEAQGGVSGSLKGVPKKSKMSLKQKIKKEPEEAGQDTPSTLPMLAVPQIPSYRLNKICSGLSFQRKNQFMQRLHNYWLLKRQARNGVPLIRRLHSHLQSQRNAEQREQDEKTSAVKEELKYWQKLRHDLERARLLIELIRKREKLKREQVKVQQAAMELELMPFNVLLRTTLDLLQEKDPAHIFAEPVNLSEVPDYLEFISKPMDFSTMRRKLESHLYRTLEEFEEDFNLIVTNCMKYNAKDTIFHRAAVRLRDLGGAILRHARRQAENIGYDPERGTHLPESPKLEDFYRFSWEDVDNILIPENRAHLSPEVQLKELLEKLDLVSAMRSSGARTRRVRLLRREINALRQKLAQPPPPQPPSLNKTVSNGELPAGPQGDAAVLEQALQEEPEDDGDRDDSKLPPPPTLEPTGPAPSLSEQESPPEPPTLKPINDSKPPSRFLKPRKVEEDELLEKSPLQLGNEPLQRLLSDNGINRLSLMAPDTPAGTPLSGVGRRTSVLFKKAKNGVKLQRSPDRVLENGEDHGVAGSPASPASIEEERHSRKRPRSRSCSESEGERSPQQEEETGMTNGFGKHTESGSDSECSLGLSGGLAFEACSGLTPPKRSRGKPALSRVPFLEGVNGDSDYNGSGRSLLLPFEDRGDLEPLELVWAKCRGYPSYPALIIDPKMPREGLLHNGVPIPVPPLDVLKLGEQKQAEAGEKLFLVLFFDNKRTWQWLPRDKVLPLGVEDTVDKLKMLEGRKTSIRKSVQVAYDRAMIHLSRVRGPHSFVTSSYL

ΔTm: 3.3 °C
SMILES: COc1cc2c(cc1NS(=O)(=O)c1ccc(Br)cc1C)n(C)c(=O)n2C
